From ChEMBL document CHEMBL5131455, “A kinase inhibitor which specifically targets the ABL myristate pocket (STAMP), but unlike asciminib crosses the blood-brain barrier” (Bioorg Med Chem Lett, 2022) come the findings set out here.

The nature of this data set: in vivo. The conditions noted are these: rat, brain and blood, po, 30 mg/kg.

As for `O=C(Nc1ccc(OC(F)(F)Cl)cc1)c1cnc(N2CC[C@@H](O)C2)c(-c2ccn[nH]2)c1` [ASCIMINIB], the Kp stood at 100.
